Measurements published in US6989362B1, “Methods of treating dopamine dysregulation using agents that regulate phosphorylation/dephosphorylation in dopamine signaling” (The Rockefeller University, priority 1999, dated 2006).

Test system: Cdk5
Assay: Cocaine-induced locomotor activity with intra-accumbens infusion of Cdk5 inhibitors
Type: in vivo, rat
Conditions: rats

CC[C@H](CO)Nc1nc(NCc2ccccc2)c2ncn(C(C)C)c2n1 [roscovitine]
locomotor behavior: increases | locomotor effects of repeated cocaine exposures (daily intra-accumbens 40 nmol/0.5 μl, cocaine 15 mg/kg i.p., 5 days): markedly potentiated | locomotor responses to initial cocaine administration (intra-accumbens 40 nmol/0.5 μl, cocaine 15 mg/kg i.p.): did not significantly affect
